For experiment [1], the system named is MDA-MB-468 cells. The experiment is described as follows: Internalization of humanized antibodies by flow cytometry, MDA-MB-468 cells. Type of experiment: cell-based. On the procedure: (§1) 30 μg/mL of humanized antibody was prepared by using a cell washing solution (PBS containing 2% FBS) pre-cooled on ice and well mixed with cells (MDA-MB-468 cells or N87 cells, 500,000 cells) according to a volume ratio of 1:1 (the final volume is 100 μL), and the mixture was incubated in an ice bath for 1 h; the mixture was then centrifuged at 1200 r/min and 4° C. for 5 min, and the supernatant was discarded; the cells were resuspended in the cell washing solution pre-cooled on ice and centrifuged at 1200 r/min and 4° C. for 5 min and the supernatant was removed, and the procedure was repeated twice; the cells were resuspended in 200 μL of cell washing solution pre-cooled on ice, incubated at 37° C. for 2 h to internalize the antibody bound to the cell surface and then transferred to an ice bath, and the cell washing solution pre-cooled on ice was added to terminate the internalization; the cells were centrifuged at 1200 r/min and 4° C. for 5 min, the supernatant was discarded, 100 μL of a PE-labeled goat anti-human IgG Fc secondary antibody diluent (Invitrogen, cat #12-4998-82, prepared with the cell washing solution pre-cooled on ice and a PE-labeled goat anti-human IgG Fc secondary antibody (500:1)) was added; the cells were resuspended, and incubated at 4° C. for 30 min in the absence of light and centrifuged at 1200 r/min and 4° C. for 5 min, and the supernatant was discarded; the cells were resuspended in the cell washing solution pre-cooled on ice and centrifuged at 1200 r/min and 4° C. for 5 min and the supernatant was discarded, and the cells were resuspended in 1×PBS pre-cooled on ice and centrifuged at 1200 r/min and 4° C. for 5 min and the supernatant was discarded; 200 μL of 1×PBS pre-cooled on ice was added to resuspend the cells, and the mean fluorescence intensity was detected with a flow cytometer.

Experiment [2] concerns N87 cells. Description: Internalization of humanized antibodies by flow cytometry, N87 cells. Type of experiment: cell-based. On the procedure:
as §1

In experiment [3] the target is T1, Mouse B7-H3 (Mus musculus, UniProt Q8VE98).
T1 construct: purchased SinoBiological 50973-M08H
T1 sequence (Q8VE98 29-316): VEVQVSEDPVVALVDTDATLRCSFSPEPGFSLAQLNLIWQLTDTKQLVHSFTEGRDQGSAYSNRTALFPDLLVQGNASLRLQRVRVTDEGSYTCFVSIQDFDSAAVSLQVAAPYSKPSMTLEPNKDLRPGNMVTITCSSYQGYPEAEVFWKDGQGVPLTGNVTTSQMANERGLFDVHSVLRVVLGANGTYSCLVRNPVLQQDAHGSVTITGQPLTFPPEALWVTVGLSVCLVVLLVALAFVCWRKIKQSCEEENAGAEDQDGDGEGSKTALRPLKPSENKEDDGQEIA
The experiment is described as follows: Species specificity ELISA, mouse B7-H3. Type of experiment: binding. As for the experimental part:
The day before the experiment, the target antigens cynomolgus monkey B7-H3 (novoprotein CA61), mouse B7-H3 (SinoBiological, 50973-M08H) and hB7-H3-his were each diluted to 2 μg/mL with 1×PBS and added to a ELISA plate (96-well plate) at 1001 μL/well (two rows for each antigen), and the wells were coated overnight at 4° C. […]

Experiment [4] addresses T2, hB7-H3-His (Homo sapiens, UniProt Q5ZPR3).
T2 construct: 10xHis (C); made in house; host or cells: HEK293F (transient transfection)
T2 sequence (Q5ZPR3 with tags, fused parts or gaps): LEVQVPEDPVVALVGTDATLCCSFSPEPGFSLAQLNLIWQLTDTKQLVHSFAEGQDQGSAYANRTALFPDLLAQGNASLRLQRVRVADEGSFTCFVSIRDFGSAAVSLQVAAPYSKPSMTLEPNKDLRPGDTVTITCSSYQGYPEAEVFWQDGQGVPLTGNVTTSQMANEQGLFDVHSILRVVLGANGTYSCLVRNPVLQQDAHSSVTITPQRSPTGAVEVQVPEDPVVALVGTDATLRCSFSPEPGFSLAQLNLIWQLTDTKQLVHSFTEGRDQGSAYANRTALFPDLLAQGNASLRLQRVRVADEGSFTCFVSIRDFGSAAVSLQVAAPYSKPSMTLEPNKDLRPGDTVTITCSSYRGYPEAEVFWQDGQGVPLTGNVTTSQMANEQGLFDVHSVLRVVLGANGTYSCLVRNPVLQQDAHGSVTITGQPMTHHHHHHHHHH
The experiment is described as follows: BiaCore T200 affinity of ADC and Antibody V3 for hB7-H3-His. Type of experiment: binding. Conditions: antigen hB7-H3-His, 1:1 kinetic model. As for the experimental part:
Experiment results were analyzed using data analysis software Evaluation Software 3.1. The sensing signals acquired from the experiment flow channels for the samples were subjected to double subtraction (minus values of reference flow channels and blank control), and the fitting was performed using a “1:1” kinetic model to obtain the kinetic parameters (ka: association rate; kd: dissociation rate; kD: equilibrium dissociation constant) for the binding of each sample to hB7-H3-His.

Experiment [5] has as its system human liver cancer Hep 3B cell line. The experiment is described as follows: Subcutaneous xenograft model of human liver cancer Hep 3B cell line. Conditions: Day 25, 5 mg/kg i.v. single administration.

This is an account of results in patent publication US20250262316A1, “ANTIBODY-DRUG CONJUGATE AND APPLICATION THEREOF” (Bio-Thera Solutions, Ltd., priority 2021, published 2025).

B1: Antibody V3: Humanized anti-B7-H3 antibody: VH SEQ ID NO: 36, CH 32, VL 40, CL 34; heavy chain SEQ ID NO: 50, light chain 52 (antibody)
heavy: EVQLVQSGAEVKKSGESLKISCKASGYTFTDYDINWVRQMPGKGLEWIGWIFPGDDTTKYNEKFKGQVTLSADKSTNTAYMQWSSLKASDTAMYYCARSPSFDYWGQGTLVTVSSASTKGPSVFPLAPSSKSTSGGTAALGCLVKDYFPEPVTVSWNSGALTSGVHTFPAVLQSSGLYSLSSVVTVPSSSLGTQTYICNVNHKPSNTKVDKKV[letters of human IgG1 Fc omitted]
light: QIVLTQSPGTLSLSPGERATLSCSASSTIGFMYWYQQKPGQAPRRWIYDTSKLASGVPDRFSGSGSGTDYTLTISRLEPEDFAVYYCHQRSSYPTFGQGTKVEIKRTVAAPSVFIFPPSDEQLKSGTASVVCLLNNFYPREAKVQWKVDNALQSGNSQESVTEQDSKDSTYSLSSTLTLSKADYEKHKVYACEVTHQGLSSPVTKSFNRGEC
Consider B1, for which the “Fluorescence intensity of control group (before endocytosis)” value in experiment [1] amounted to 47757.42. Besides, in experiment [1] (37° C. for 2 h), the “Fluorescence intensity after endocytosis” value was 36060.02 and the Percentage of endocytosis was 24.49%. The “Fluorescence intensity of control group (before endocytosis)” value in experiment [2] turned out to be 246249.85. For the same molecule, in experiment [2] (37° C. for 2 h), the “Fluorescence intensity after endocytosis” value stood at 193742.47 and the Percentage of endocytosis turned out to be 21.32%. In addition, the “binding to mouse B7-H3” value in experiment [3] is “did not bind”. In experiment [4], the “ka (association rate)” value is 886000 M⁻¹ s⁻¹ and the “kd (dissociation rate)” value is 0.000155 s⁻¹.

B2: ADC2 (conjugate)
heavy: EVQLVQSGAEVKKSGESLKISCKASGYTFTDYDINWVRQMPGKGLEWIGWIFPGDDTTKYNEKFKGQVTLSADKSTNTAYMQWSSLKASDTAMYYCARSPSFDYWGQGTLVTVSSASTKGPSVFPLAPSSKSTSGGTAALGCLVKDYFPEPVTVSWNSGALTSGVHTFPAVLQSSGLYSLSSVVTVPSSSLGTQTYICNVNHKPSNTKVDKKV[letters of human IgG1 Fc omitted]
light: QIVLTQSPGTLSLSPGERATLSCSASSTIGFMYWYQQKPGQAPRRWIYDTSKLASGVPDRFSGSGSGTDYTLTISRLEPEDFAVYYCHQRSSYPTFGQGTKVEIKRTVAAPSVFIFPPSDEQLKSGTASVVCLLNNFYPREAKVQWKVDNALQSGNSQESVTEQDSKDSTYSLSSTLTLSKADYEKHKVYACEVTHQGLSSPVTKSFNRGEC
In the case of B2, in experiment [5], the “Mean tumor volume ± SEM” value was 858 ± 112 mm^3 and the TGI is 62.02%.
